According to PubChem BioAssay AID1894 (NMMLSC, 2009):
The list shows a part of the results, in another mix than the full data. Activity calls are given as the source filed them.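 Rule for the calls: active = binding response below 72% of control, or above a set upper limit, though filed actives all read lower; inactive = the rest.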

The chains behind the UniProt entries cited, without tags or fusion partners.
UniProt Q99759, whole entry: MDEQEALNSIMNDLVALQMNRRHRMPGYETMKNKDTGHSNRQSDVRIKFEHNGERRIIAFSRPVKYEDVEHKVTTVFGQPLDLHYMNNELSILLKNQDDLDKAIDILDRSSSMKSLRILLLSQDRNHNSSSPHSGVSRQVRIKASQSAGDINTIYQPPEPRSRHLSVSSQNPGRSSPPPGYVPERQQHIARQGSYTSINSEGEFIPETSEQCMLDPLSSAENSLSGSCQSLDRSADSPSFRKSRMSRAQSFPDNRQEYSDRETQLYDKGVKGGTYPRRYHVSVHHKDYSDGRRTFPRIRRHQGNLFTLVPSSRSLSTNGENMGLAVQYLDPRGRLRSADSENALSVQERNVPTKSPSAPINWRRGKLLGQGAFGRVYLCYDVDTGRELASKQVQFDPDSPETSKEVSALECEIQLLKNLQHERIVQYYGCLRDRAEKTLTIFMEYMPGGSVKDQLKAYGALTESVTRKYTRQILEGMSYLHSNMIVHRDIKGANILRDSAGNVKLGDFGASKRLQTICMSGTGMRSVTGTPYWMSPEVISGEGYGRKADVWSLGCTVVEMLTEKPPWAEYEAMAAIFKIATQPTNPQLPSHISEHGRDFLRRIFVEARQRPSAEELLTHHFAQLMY

target: Mitogen-activated protein kinase kinase kinase 3 (Homo sapiens) (UniProt Q99759); experiment: MEKK3 wild-type PB1 binding to MEK5, inhibitors, confirmation, biochemical, bead multiplex flow cytometry, single concentration, wildtype (AID 1894); details: Alexa488-MEK5 binding to MEKK3, at 10 µM, hits give low values;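 note: 100% = DMSO only wells and 0% = binding blocked by excess unlabeled MEK5; lower values mean stronger disruption of MEK5 binding to MEKK3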

SMILES	binding response (% of control)
COc1ccccc1OP(C)(=O)Nc1c(C)cccc1C (stereo not drawn)	inactive: 103%
CP(=O)(Nc1ccc(Cl)cc1)Oc1ccc(F)cc1 (stereo not drawn)	inactive: 103%
CCN(CC)CCCOC(=O)C(O)(c1ccccc1)C1CCCCC1 (stereo not drawn)	inactive: 103%
